Data reported in patent US11186566B2, “Modulator of cystic fibrosis transmembrane conductance regulator, pharmaceutical compositions, methods of treatment, and process for making the modulator” (Vertex Pharmaceuticals Incorporated, priority 2016, dated 2021).

Chains of the proteins cited; added tags and fusions are not shown. A line that says so, or that is headed by a name, gives the form on record, which may keep a tag or linker.
UniProt P13569, other isoform, or with tags, fused parts or gaps del F508-F508: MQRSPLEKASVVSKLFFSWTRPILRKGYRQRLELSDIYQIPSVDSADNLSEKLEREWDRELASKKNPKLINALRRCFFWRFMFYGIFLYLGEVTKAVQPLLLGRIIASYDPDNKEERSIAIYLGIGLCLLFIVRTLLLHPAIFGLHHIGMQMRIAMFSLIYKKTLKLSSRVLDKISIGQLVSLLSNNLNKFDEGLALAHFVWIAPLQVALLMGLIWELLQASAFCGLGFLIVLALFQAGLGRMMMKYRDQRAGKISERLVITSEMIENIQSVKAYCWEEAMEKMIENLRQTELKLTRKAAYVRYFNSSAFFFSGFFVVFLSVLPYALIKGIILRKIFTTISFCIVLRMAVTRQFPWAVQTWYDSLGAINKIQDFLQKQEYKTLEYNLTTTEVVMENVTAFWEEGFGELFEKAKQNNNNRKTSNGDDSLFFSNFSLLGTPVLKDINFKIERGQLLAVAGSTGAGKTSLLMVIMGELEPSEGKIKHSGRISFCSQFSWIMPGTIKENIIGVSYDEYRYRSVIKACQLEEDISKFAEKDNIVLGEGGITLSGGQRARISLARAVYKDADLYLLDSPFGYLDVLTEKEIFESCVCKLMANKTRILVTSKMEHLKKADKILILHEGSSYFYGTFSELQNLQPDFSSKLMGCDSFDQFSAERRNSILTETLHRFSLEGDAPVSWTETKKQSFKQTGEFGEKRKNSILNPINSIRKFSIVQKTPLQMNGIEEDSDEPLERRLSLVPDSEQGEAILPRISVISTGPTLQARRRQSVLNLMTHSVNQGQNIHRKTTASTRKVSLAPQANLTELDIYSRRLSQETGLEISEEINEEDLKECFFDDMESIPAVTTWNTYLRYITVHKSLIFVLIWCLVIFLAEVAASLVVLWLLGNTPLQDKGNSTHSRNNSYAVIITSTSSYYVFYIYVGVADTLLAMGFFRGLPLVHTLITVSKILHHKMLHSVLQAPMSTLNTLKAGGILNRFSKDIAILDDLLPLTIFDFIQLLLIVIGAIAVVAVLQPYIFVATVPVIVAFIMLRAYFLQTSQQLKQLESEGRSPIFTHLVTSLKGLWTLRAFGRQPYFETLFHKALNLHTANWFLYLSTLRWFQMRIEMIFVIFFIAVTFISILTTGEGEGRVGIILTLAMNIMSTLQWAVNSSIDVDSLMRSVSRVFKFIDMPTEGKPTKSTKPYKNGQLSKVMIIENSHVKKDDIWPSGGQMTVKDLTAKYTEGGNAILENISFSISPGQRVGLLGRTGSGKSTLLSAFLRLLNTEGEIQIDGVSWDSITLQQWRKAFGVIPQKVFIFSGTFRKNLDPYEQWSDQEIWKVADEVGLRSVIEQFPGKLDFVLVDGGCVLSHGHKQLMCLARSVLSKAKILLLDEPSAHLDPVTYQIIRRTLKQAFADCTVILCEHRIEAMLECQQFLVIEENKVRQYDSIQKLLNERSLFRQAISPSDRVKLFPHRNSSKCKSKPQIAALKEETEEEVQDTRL

Target: F508del-CFTR (Homo sapiens (Human), UniProt P13569, DEL508-508)
Experiment: Membrane potential optical (fluorescent voltage sensing dye, FLIPR III) HTS assay for F508del-CFTR modulators
Assay type: cell-based
Conditions: F508del NIH 3T3 cells, assay 5A-A1; read-out: CFTRdF508 EC50
Excerpt: Membrane Potential Optical Methods for Assaying Properties of F508del-CFTR Modulators
The assay utilizes fluorescent voltage sensing dyes to measure changes in membrane potential using a fluorescent plate reader (e.g., FLIPR III, Molecular Devices, Inc.) as a readout for increase in functional F508del in NIH 3T3 cells.
5A-A1. Identification of F508Del-CFTR Modulators
To identify modulators of F508del, a fluorescence based HTS assay format was developed. This HTS assay utilizes fluorescent voltage sensing dyes to measure changes in membrane potential on the FLIPR III as a measurement for increase in gating (conductance) of F508del NIH 3T3 cells.
(in mM) NaCl 160, KCl 4.5, CaCl2 2, MgCl2 1, HEPES 10, pH 7.4 with NaOH, Glucose 10.
Chloride salts in Bath Solution #1 (above) are substituted with gluconate salts.
NIH3T3 mouse fibroblasts stably expressing F508del are used for optical measurements of membrane potential. The cells are maintained at 37° C. in 5% CO2 and 90% humidity in Dulbecco's modified Eagle's medium supplemented with 2 mM glutamine, 10% fetal bovine serum, 1×NEAA, β-ME, 1×pen/strep, and 25 mM HEPES in 175 cm^2 culture flasks. For all optical assays, the cells were seeded at 12,000 cells/well in 384-well matrigel-coated plates and cultured for 18-24 hrs at 37° C. for the potentiator assay. […]

EC50: 100 to 1000 nM
Structure (SMILES): C[C@@H]1CN(c2nc(-n3ccc(COC4(C)CC4)n3)ccc2C(=O)NS(=O)(=O)c2ccccc2)C(C)(C)C1 [Compound 29, N-(Benzenesulfonyl)-6-[3-[(1-methylcyclopropoxy)methyl]pyrazol-1-yl]-2-[(4S)-2,2,4-trimethylpyrrolidin-1-yl]pyridine-3-carboxamide]
